This is a selection; strong and weak results do not stand in their true shares. These assays gave more results; the selection is not random.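 Following 48 hours of exposure in 96-well plates, responses at five concentrations were used to interpolate endpoints linearly. Abbreviation: GI50, concentration required for 50% inhibition of growth.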 The list shows a part of the results. For most assays here, no stated cut-off is given here; in the data, active = GI50 up to about 1.1 µM and inactive = higher. For part of these data: Results with a measured potency or affinity are listed apart.
Columns and labels:
Assay in all cases: NCI tumour cell line growth inhibition, 48 h
[1] = system: Malme-3M
[2] = system: Hs-578T
[3] = system: IGROV-1
[4] = system: 786-0
[5] = system: A498
[6] = system: A549
[7] = system: ACHN
[8] = system: BT-549
[9] = system: CAKI-1
[10] = system: COLO 205
[11] = system: DU-145
[12] = system: EKVX
[13] = system: HCT-116
[14] = system: HCT-15
[15] = system: HOP-62
[16] = system: HOP-92
[17] = system: HT-29
[18] = system: K562
[19] = system: KM12
[20] = system: LOX IMVI
[21] = system: M14
[22] = system: MCF7
[23] = system: MDA-MB-231
[24] = system: MDA-MB-435
[25] = system: MDA-N
[26] = system: NCI-H226
[27] = system: NCI-H322M
[28] = system: NCI-H460
[29] = system: NCI-H522
[30] = system: NCI/ADR-RES
[31] = system: OVCAR-3
[32] = system: OVCAR-4
[33] = system: OVCAR-5
[34] = system: OVCAR-8
[35] = system: PC-3
[36] = system: RPMI-8226
[37] = system: SF-268
[38] = system: SF-295
[39] = system: SF-539
[40] = system: SK-MEL-28
[41] = system: SK-MEL-2
[42] = system: SK-MEL-5
[43] = system: SK-OV-3
[44] = system: SN12C
[45] = system: SNB-19
[46] = system: SNB-75
[47] = system: SW-620
[48] = system: T47D
[49] = system: TK-10
[50] = system: U-251
[51] = system: UACC-257
[52] = system: UACC-62
[53] = system: UO-31
[54] = system: CCRF-CEM
[55] = system: DLD-1
[56] = system: DMS-114
[57] = system: DMS-273
[58] = system: HCC 2998
[59] = system: HL-60
[60] = system: HOP-18
[61] = system: KM-20L2
[62] = system: M19-MEL
[63] = system: MOLT-4
[64] = system: SNB-78
[65] = system: XF498
[66] = system: SR

Measured: GI50

O=[N+]([O-])C(F)(CN(COCN(CC(F)([N+](=O)[O-])[N+](=O)[O-])CC(F)([N+](=O)[O-])[N+](=O)[O-])CC(F)([N+](=O)[O-])[N+](=O)[O-])[N+](=O)[O-]
inactive: [1] 1.62 µM

C[C@@H]1CCOC(=O)/C=C/C=C\C(=O)O[C@@H]2C[C@H]3O[C@@H]4[C@@H]5OC5(C)CC[C@]4(COC(=O)[C@H]1O)[C@]2(C)[C@@]31CO1 (stereo partly specified)
active: [2] < 0.01 µM

Cc1c([N+](=O)[O-])cc([N+](=O)[O-])c(-c2c([N+](=O)[O-])cc([N+](=O)[O-])c(C)c2[N+](=O)[O-])c1[N+](=O)[O-]
inactive: [3] 1.47 µM

N1=C(c2nnn[nH]2)NNC(c2nnn[nH]2)=N1
inactive: [4] > 100 µM | [5] > 100 µM | [6] > 100 µM | [7] > 100 µM | [8] > 100 µM | [9] > 100 µM | [10] > 100 µM | [11] > 100 µM | [12] > 100 µM | [13] > 100 µM | [14] > 100 µM | [15] > 100 µM | [16] > 100 µM | [17] > 100 µM | [2] > 100 µM | [3] > 100 µM | [18] > 100 µM | [19] > 100 µM | [20] 43.6 µM | [21] > 100 µM | [22] > 100 µM | [23] > 100 µM | [24] > 100 µM | [25] > 100 µM | [1] > 100 µM | [26] > 100 µM | [27] > 100 µM | [28] > 100 µM | [29] > 100 µM | [30] > 100 µM | [31] > 100 µM | [32] > 100 µM | [33] > 100 µM | [34] > 100 µM | [35] > 100 µM | [36] > 100 µM | [37] > 100 µM | [38] > 100 µM | [39] > 100 µM | [40] > 100 µM | [41] > 100 µM | [42] > 100 µM | [43] > 100 µM | [44] > 100 µM | [45] > 100 µM | [46] > 100 µM | [47] > 100 µM | [48] > 100 µM | [49] > 100 µM | [50] > 100 µM | [51] > 100 µM | [52] > 100 µM | [53] > 100 µM

CC1=CC2OC3CC4OC(=O)/C=C\C=C\C(=O)OCCC(C)C(O)C(=O)OCC2(CC1O)C4(C)C31CO1 (stereo unspecified)
active: [8] < 0.001 µM | [2] < 0.001 µM | [18] < 0.001 µM

O=C(NCC(F)([N+](=O)[O-])[N+](=O)[O-])N(CC(F)([N+](=O)[O-])[N+](=O)[O-])CC(F)([N+](=O)[O-])[N+](=O)[O-]
inactive: [47] 1.55 µM

CC(=O)OC1(C)CC(=O)OCC23CCC(C)=CC2OC2CC(OC(=O)/C=C\C=C\C(C(C)O)OCC1O)C3(C)C21CO1 (stereo unspecified)
active: [36] 0.0597 µM

Nc1c([N+](=O)[O-])cc([N+](=O)[O-])c(-c2nnc(-c3c([N+](=O)[O-])cc([N+](=O)[O-])c(N)c3[N+](=O)[O-])s2)c1[N+](=O)[O-]
inactive: [21] 1.27 µM

CC1=C[C@H]2O[C@@H]3[C@H](O)[C@@H](O)[C@](C)([C@@]2(O)CC1)[C@]31CO1
active: [5] 0.169 µM | [6] 0.264 µM | [9] 0.541 µM | [54] 0.205 µM | [10] 0.281 µM | [55] 0.191 µM | [56] 0.156 µM | [57] 0.222 µM | [12] 0.656 µM | [58] 0.21 µM | [13] 0.191 µM | [14] 0.236 µM | [59] 0.185 µM | [60] 0.746 µM | [15] 0.242 µM | [16] 0.172 µM | [17] 0.345 µM | [3] 0.21 µM | [18] 0.178 µM | [61] 0.243 µM | [19] 0.237 µM | [20] 0.145 µM | [62] 0.157 µM | [22] 0.189 µM | [63] 0.169 µM | [1] 0.163 µM | [26] 0.24 µM | [27] 0.414 µM | [28] 0.196 µM | [29] 0.164 µM | [31] 0.211 µM | [32] 0.188 µM | [34] 0.263 µM | [36] 0.239 µM | [37] 0.279 µM | [38] 0.225 µM | [39] 0.217 µM | [40] 0.198 µM | [41] 0.845 µM | [42] 0.107 µM | [43] 0.279 µM | [44] 0.336 µM | [45] 0.186 µM | [46] 0.207 µM | [64] 0.294 µM | [47] 0.25 µM | [50] 0.181 µM | [51] 0.24 µM | [52] 0.222 µM | [53] 0.385 µM | [65] 0.239 µM

CC1=C[C@H]2O[C@@H]3[C@H](O)[C@@H](O)[C@](C)(C2(COC(=O)CCl)CC1)[C@@]31CO1 (stereo partly specified)
active: [66] 0.0101 µM

CCN(CCO)CCO.Oc1c(Cl)c(Cl)c(Cl)c(Cl)c1Cl
inactive: [4] 22.3 µM | [5] 20.2 µM | [6] 22.4 µM | [7] 18.6 µM | [8] 20.7 µM | [9] 36.4 µM | [10] 21.3 µM | [11] 30.5 µM | [12] 12.5 µM | [58] 17.9 µM | [13] 16.3 µM | [14] 17 µM | [15] 21.3 µM | [16] 23.7 µM | [17] 18.2 µM | [2] 33.3 µM | [3] 14.4 µM | [18] 33.3 µM | [19] 19.5 µM | [20] 18.1 µM | [21] 20.1 µM | [22] 29.7 µM | [23] 19.5 µM | [24] 29 µM | [25] 22.8 µM | [63] 22.9 µM | [1] 18 µM | [27] 18 µM | [28] 19 µM | [29] 23.1 µM | [30] 20.6 µM | [31] 17.9 µM | [32] 30.9 µM | [33] 16.4 µM | [34] 30.9 µM | [35] 21.7 µM | [36] 29.4 µM | [37] 29.8 µM | [38] 19.7 µM | [39] 21.5 µM | [40] 25.3 µM | [41] 20.4 µM | [42] 13.7 µM | [43] 26.3 µM | [44] 20.4 µM | [45] 31.4 µM | [46] 25.9 µM | [66] 20.4 µM | [47] 31.7 µM | [48] 22.8 µM | [49] 20.8 µM | [50] 18.4 µM | [51] 20.7 µM | [52] 18.9 µM | [53] 18.5 µM

CCCCCCCCCCCCCCC[C@@H]1C[N+](C)(C)CCO[P@@](C)(=O)O1
inactive: [63] 1.33 µM
active: [66] 0.653 µM
